# TDP1 cell noCPT: qHTS for Inhibitors of human tyrosyl-DNA phosphodiesterase 1 (TDP1): qHTS in cells in absence of CPT; DT40 Tdp1-/- hTDP1 cells, no CPT, ATP luminescence, 48 h; Potency, µM (highest dose often 46.2 µM), actives largely listed as inhibitors; 420,000 tested, 15% active; also: nearly all actives have a fitted effect of over 55% in size
#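 Compound effects on proliferation are scored in DT40 Tdp1-/-;hTDP1 cells in the absence of CPT. ATP levels (CellTiter-Glo luminescence) are recorded after a ≥48 hr, 37 °C incubation.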
# miR-21 reporter: miR-21 reporter, rising signal; HeLa miR-21 FLuc reporter, luciferase, 48 h; Potency, µM (doses to about 38.3 µM); 340,000 tested, under 10 active; AID 2288; active = well fitted rising curve with a large enough effect; inconclusive = small, poorly fitted or top-dose-only effect; inactive = no such curve, though single readings can be large or run the other way;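 further: miR-21 action dims this reporter so a rising signal means less miR-21 action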
#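 HeLa miR-21-FLuc reporter line, endogenous miR-21; 2000 cells/well in DMEM/10% FBS; compound titration up to ~40uM final, 48 h, 37 degree Celsius; luciferase detection reagent, 15 min lysis, CCD luminescence.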
# TDP1 block: blocks human tyrosyl-DNA phosphodiesterase 1. Q9NUW8. recombinant TDP1, AlphaScreen DNA substrate cleavage. Potency, µM (series often up to 130 µM), actives largely listed as inhibitors. 350,000 tested, 0.28% active. AID 485290; also: nearly all actives have a fitted effect of over 40% in size
#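 Steps: enzyme plus compound, 15 min RT; add biotin/phosphotyrosine-FITC oligonucleotide (15 nM final), react 5 min; add donor/acceptor beads (10 ug/ml final), 10 min; read AlphaScreen. Tdp1 at 1 nM final.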
# uPA generation: blocks generation of uPA at the cell surface | cell surface uPA generation assay, qHTS | Potency, µM (doses to about 38.3 µM), hits mostly inhibitors | 330,000 tested, 0.31% active; active = well fitted inhibition curve with a large enough effect; inconclusive = small, poorly fitted or top-dose-only effect; inactive = no such curve, though single readings can be large or run the other way; tested in mouse RAW 264.7 cells; also: nearly all actives have a fitted effect of over 55% in size
# TDP1 cell CPT: DT40-hTDP1 cell growth loss with CPT. chicken DT40 Tdp1-/-;hTDP1 cells + 20 nM CPT, ATP luminescence, 48 h. Potency, µM (series often up to 46.2 µM), hits mostly inhibitors. 420,000 tested, 12% active; also: nearly all actives have a fitted effect of over 55% in size
#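 Cell growth measured by CellTiter-Glo luminescence after a minimum 48 h, 37 C compound exposure with 20 nM CPT in Tdp1-knockout DT40 cells stably expressing hTDP1, seeded 400/well; qHTS titration format.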
# A number is an active result; 0 = inactive; ? = inconclusive; - = no result. Rows were chosen to be rich in hits. Some 16% of all compounds tested hit in one or more screens of this group. Unless noted, calls follow the shape of the dose curve; as a rule, active = well fitted curve in the direction sought with a large enough effect; inconclusive = small, poorly fitted or top-dose-only effect, or another doubt; inactive = no such curve, though single readings can be large; an effect the other way counts as inactive or inconclusive.
SMILES,TDP1 cell noCPT,miR-21 reporter,TDP1 block,uPA generation,TDP1 cell CPT
C[C@H]1CN([C@@H](C)CO)C(=O)c2cccc(NC(=O)C3CC3)c2O[C@H]1CN(C)Cc1ccc(C(F)(F)F)cc1,?,-,0,0,0
C[C@H](CO)N1C[C@H](C)[C@@H](CN(C)Cc2ccc(C(=O)Nc3ccccc3N)cc2)Oc2c(NC(=O)C3CCCCC3)cccc2C1=O,14.6µM,-,0,?,14.6µM
C[C@H](CO)N1C[C@H](C)[C@@H](CN(C)C(=O)Nc2ccc3c(c2)OCO3)Oc2c(NC(=O)C3CCCCC3)cccc2C1=O,0,-,0,0,0
C[C@H](CO)N1C[C@H](C)[C@@H](CN(C)CC2CCCCC2)Oc2c(NC(=O)Cc3ccccc3)cccc2C1=O,16.4µM,-,0,?,14.6µM
Cc1ccccc1NC(=O)c1ccc(F)c(S(=O)(=O)N(C)C2CCCCC2)c1,?,0,0,-,0
CCOC(=O)c1c(C)[nH]c(C)c1S(=O)(=O)N(C)CC(=O)Nc1ccc(C)cn1,0,0,0,0,0
COc1ccc(-c2cc(=O)oc3cc(OCC(=O)NCc4ccccn4)ccc23)cc1,23.1µM,0,-,0,?
CCCc1cc(=O)oc2cc(C)cc(OCC(=O)NCc3ccccn3)c12,0,0,0,0,18.4µM
Cc1cc(=O)oc2cc(OC(C)C(=O)NCc3ccccn3)ccc12 (stereo unspecified),0,0,0,0,0
Cc1cc(OCC(=O)NCc2ccccn2)c2c(C)cc(=O)oc2c1,0,0,0,0,0
CCOC(=O)c1c(-c2ccc(OC)cc2)csc1NC(=O)COc1ccc2c(C)cc(=O)oc2c1,16.4µM,0,0,0,23.1µM
COc1ccc(-c2cc(=O)oc3cc(OC(C)C(=O)NCc4ccccn4)ccc23)cc1 (stereo unspecified),?,0,-,0,20.6µM
Cc1cc(=O)oc2cc(OCC(=O)NCc3ccccn3)ccc12,0,0,0,0,0
CCC(CC)c1nnc(NC(=O)COc2ccc3c(C)cc(=O)oc3c2)s1,?,0,0,-,?
COCC(=O)OCC(=O)Nc1cc(C(C)(C)C)nn1-c1ccccc1,0,0,0,0,0
CC(C)c1ccc(NC(=O)COC(=O)c2nn(C)c(=O)c3ccccc23)cc1,0,-,0,0,0
Cn1c(C(=O)NCc2cccc(Cl)c2)cc2oc3ccccc3c21,0,0,0,-,?
CCOc1ccc(NC(=O)Cn2c(=O)n(-c3ccccc3)c(=O)c3c4c(sc32)CCCC4)cc1,0,0,0,-,?
CC1CCCC(C)N1C(=O)COC(=O)CN1C(=O)c2ccccc2C1=O (stereo unspecified),0,-,0,0,0
CCc1c(C)nc(SCC(=O)N2CCc3ccccc32)[nH]c1=O,-,0,0,-,-
CC(Oc1ccc2c(-c3ccccc3)cc(=O)oc2c1)C(=O)NCCCn1ccnc1 (stereo unspecified),14.6µM,0,-,0,23.1µM
CCC(=O)c1c[nH]c(C(=O)NCCCN2CCOCC2)c1,0,0,0,0,0
CC(C)(C)c1ccc(C(=O)c2c[nH]c(C(=O)NCCCN3CCOCC3)c2)cc1,18.4µM,0,0,-,?
Cc1ccccc1C(=O)c1c[nH]c(C(=O)NCC2CCCO2)c1 (stereo unspecified),?,0,0,0,0
CC(C)(C)c1ccc(C(=O)c2c[nH]c(C(=O)NCC3CCCO3)c2)cc1 (stereo unspecified),14.6µM,0,0,0,?
SMILES,TDP1 cell noCPT,miR-21 reporter,TDP1 block,uPA generation,TDP1 cell CPT
CC1CCN(Cc2ccc(-c3nnn(CC(=O)NC4CCCCC4)n3)cc2)CC1,0,0,0,0,0
COc1cc(-c2n[nH]c(=S)n2/N=C/c2cccn2C)cc(OC)c1OC,18.4µM,0,-,0,?
COc1cc2c(cc1OC)C(CCc1ccccc1)=NCC2,16.4µM,0,-,0,?
COc1cc2c(cc1OC)C(c1cc(-c3cc(Cl)ccc3Cl)oc1C)=NCC2,1µM,-,-,-,1.26µM
COc1ccc(C2=NCCc3cc(OC)c(OC)cc32)cc1,20.6µM,0,0,0,?
COc1cc2c(cc1OC)C(c1c(-c3c(Cl)cccc3Cl)noc1C)=NCC2,10.3µM,-,-,-,23.1µM
COc1cc2c(cc1OC)C(c1c(Cl)cccc1Cl)=NCC2,0.231µM,-,-,-,0.259µM
COc1cc2c(cc1OC)C(/C=C/c1ccc(OC)c(OC)c1OC)=NCC2,?,-,0,-,?
Cc1ccc(NC(=O)CN2CCc3cc4c(cc3C2)OCCCO4)cc1C,?,0,0,0,?
CCc1ccccc1NC(=O)Cn1ccn(Cc2ccccc2)c(=O)c1=O,0,?,0,-,0
CCO[C@@H]1OC(C(=O)NCc2nc3ccccc3[nH]2)=C[C@H](c2ccccc2)[C@H]1CCCO,?,0,0,0,?
CCO[C@H]1OC(C(=O)NCc2nc3ccccc3[nH]2)=C[C@@H](C2CC2)[C@@H]1CCCO,0.581µM,0,0,?,0.82µM
CCO[C@@H]1OC(C(=O)NCc2nc3ccccc3[nH]2)=C[C@H](c2csc3ccccc23)[C@H]1CCCO,23.1µM,0,0,0,23.1µM
CCO[C@H]1OC(C(=O)NCc2nc3ccccc3[nH]2)=C[C@@H](c2ccccc2)[C@@H]1CCCO,?,0,0,0,?
